According to patent publication US20240034757A1 (OXFORD UNIVERSITY INNOVATION, published 2024):

Key:
Test in all cases: cell-based or functional assay
CCL3_HUMAN = target: T1, CCL3_HUMAN (human, UniProt P10147 24-92)
T1 sequence: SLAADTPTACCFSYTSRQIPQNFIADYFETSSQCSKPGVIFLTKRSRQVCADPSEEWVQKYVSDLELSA

CXCL1_HUMAN = target: T2, CXCL1_HUMAN (human, UniProt P09341 35-107)
T2 sequence: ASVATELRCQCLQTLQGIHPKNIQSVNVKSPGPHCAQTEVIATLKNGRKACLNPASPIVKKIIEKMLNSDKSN

CCL5_HUMAN = target: T3, CCL5_HUMAN (human, UniProt P13501 24-91)
T3 sequence: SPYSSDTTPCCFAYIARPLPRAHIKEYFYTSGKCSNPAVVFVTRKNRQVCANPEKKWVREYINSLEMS

B1: P1243:G4S:P1156 (designed binder)
chain: RNHTEDNSTEYYDYEEARCACPARHLNNTNGTVLKLLGCHYFCNGTLCTAPDGYPCYNLTAQQVRTLTTYPNTSCAVGVCMKGTCVKNGTMEQCFKTPGGGGSADDDNELFTVQYCGMNCTKDEGGTWTGCTGKKEGCKCYHESGKNYGLCLSTEYTDFSQYGNPSDSEIEAAKPKRSDTLSH
CCL3_HUMAN
  IC50, CCL3 induced THP-1 cell migration: 7 nM
CXCL1_HUMAN
  IC50, CXCL1 induced granulocyte cell migration: 25.3 nM
CCL5_HUMAN
  IC50, CCL5 induced THP-1 cell migration: 6.8 nM
